# Curated experimental data: vapor pressure values

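OPERA's authors assembled the values from existing databases and did not measure them anew. The files give a single number for a compound and property, which may rest on several reports. Method, purity and exact conditions of the single measurements are not given. The measured form (salt, isomer or mixture) is not always the one drawn. Some upstream entries may be estimates or bounds without being marked so.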

Vapor pressure is log10 of mmHg; the set covers 15 to 30 °C, mostly 20 to 25 °C.
"n/a" marks a cell with nothing listed here.

compound | name | vapor pressure (log10 mmHg)
CCCCCCCCCCCCCC[N+](C)(C)C.CCCCCCCCCCCCCC[N+](C)(C)C.O=C([O-])C(=O)[O-] | Bis(N,N,N-trimethyl-1-tetradecanaminium) ethanedioate | -7.476
CNC(=O)/C(=N/OC)c1ccccc1COc1cc(C)ccc1C | Dimoxystrobin | -10.35
CCC(C)OC(=O)N1CCCCC1CCO (stereo not given) | Icaridin | -3.354
C=COCCOCCOCCOC=C | 3,6,9,12-Tetraoxatetradeca-1,13-diene | -2.502
C=CCOC(=O)CCC1CCCCC1 | Prop-2-en-1-yl 3-cyclohexylpropanoate | -1.545
CC(O)C(=O)OCC1CC=CCC1 (stereo not given) | n/a | -2.216
N#CCN(CC#N)CCN(CC#N)CC#N | (Ethylenedinitrilo)tetraacetonitrile | -5.502
COc1c(Cl)cc(Cl)c(OC)c1O | 3,5-Dichloro-2,6-dimethoxyphenol | -2.455
C1C2CC2C2CC12 (stereo not given) | Tricyclo(4.1.0.02,4)-heptane | 1.573
Clc1cccc(-c2c(Cl)c(Cl)c(Cl)c(Cl)c2Cl)c1Cl | 2,2',3,3',4,5,6-Heptachlorobiphenyl | -6.385
Nc1ccccc1-c1cc(F)c(F)c(F)c1 | 3',4',5'-Trifluoro[1,1'-biphenyl]-2-amine | -3.267
CC(=O)c1ccc2c(c1)CCCC2 | 6-Acetyl-1,2,3,4-tetrahydronaphthalene | -3.013
CC(C=O)Cc1ccc(C(C)(C)C)cc1 (stereo not given) | 2-(4-Tert-Butylbenzyl)propionaldehyde | -2.446
C=C(C#N)C(=O)OC | Methyl 2-cyanoacrylate | -0.699
COC(=O)C(C)O (stereo not given) | Methyl 2-hydroxypropanoate | 0.407
c1ccc(COc2ccc3ccccc3c2)cc1 | Benzyl 2-naphthyl ether | -6.472
CCCCCC1C(=O)CCC1CC(=O)OC (stereo not given) | Methyl dihydrojasmonate | -2.802
Cl.Oc1ncccn1 | Pyrimidine-2-ol hydrochloride | -4.534
CCOCCOC(=O)/C(C#N)=C1\C=C(NCCCOC)CCC1 | n/a | -7.878
C=COC(=O)CCCCCCCCCCC | Dodecanoic acid, ethenyl ester | -2.881
CCCCCCC(O)CO (stereo not given) | 1,2-Octanediol | -2.813
C[Si](C)(Cl)CCCCl | Silane, chloro(3-chloropropyl)dimethyl- | -0.394
CCCCCCC(CCCC)C(=O)O (stereo not given) | Octanoic acid, 2-butyl- | -4.268
Brc1ccc(Oc2ccc(Br)c(Br)c2)c(Br)c1 | 2,3',4,4'-Tetrabromodiphenyl ether | -6.035
CCCCOC(=O)/C=C\C(=O)O | Butyl hydrogen maleate | -2.824
C[C@H]1CC[C@@H](O)CC1 | cis-4-Methylcyclohexanol | -0.447
O=[N+]([O-])C1(Br)COCOC1 | 5-Bromo-5-nitro-1,3-dioxane | -1.799
CCCc1nc2c(C)cc(-c3nc4ccccc4n3C)cc2[nH]1 | n/a | -12.34
CC(C)[C@H](N)C(=O)O | L-Valine | -7.467
CCCCOCC(C)O (stereo not given) | 1-Butoxy-2-propanol | -0.1
O=C(Nc1ccccc1)Nc1ccccc1NS(=O)(=O)c1ccccc1 | n/a | -4.546
C=COC(=O)C(CC)CCCC (stereo not given) | Ethenyl 2-ethylhexanoate | -0.147
CN(C)C(=O)c1cc2cnc(Nc3ccc(N4CCNCC4)cn3)nc2n1C1CCCC1 | Ribociclib | -9.869
CNCCC[Si](OC)(OC)OC | 1-Propanamine, N-methyl-3-(trimethoxysilyl)- | -0.523

Values as listed in the OPERA 2.9 repository of K. Mansouri.